Patent US20160169885A1

How the values were obtained:
[1] = system: Ac-N-Asp-Gly-Asp-Ala-Gly-Tyr-Ala-Gly-Leu-Arg-Gly-Ala-Gly-diamino-ethyl-Bodipy FL
[2] = biological target: Ac-N-Asp-Gly-Asp-Ala-Gly-Tyr-Ala-Gly-Leu-Arg-Gly-Ala-Gly-diamino-ethyl-Bodipy FL; assay: cell-based or functional assay

bovine pancreatic α-chymotrypsin
detection level of the protease by cleavage of the substrate, by inspection of the agarose gel, 1×PBS [1]: a detection level of about 20 nM for chymotrypsin
detection level of the protease by cleavage of the substrate, by inspection of the agarose gel, human plasma [1]: a detection level of about 20 nM for chymotrypsin
detection limit of the protease by cleavage of the substrate, quantified gel scan, 1×PBS [1]: a detection limit of about 10 nM (0.02 activity units′/ml) for α-chymotrypsin
detection limit of the protease by cleavage of the substrate, quantified gel scan, human plasma [1]: a detection limit of about 10 nM (0.02 activity units^1/ml) for α-chymotrypsin

bovine pancreatic α-chymotrypsin (from UniProt P00766 1-245) (enzyme)
detection limit of the cleavage products in whole rat blood (reaction in 1×PBS, then mixed with inhibitor-treated blood), agarose gel [2]: 20 nM
